# Measured affinities in a library of Ab-14 heavy chain variants

Source: Li et al. 2023 (doi:10.1038/s41467-023-39022-2), MIT Lincoln Laboratory and A-Alpha Bio; data file from the FLAb repository.

All variants were tested on one target, the spike HR2 peptide PDVDLGDISGINAS (SARS-CoV-2).

Ab-14 is the parent antibody, in scFv form: VH, then a (GGGGS)3 linker, then VL. The light chain is unchanged in all variants.
VH: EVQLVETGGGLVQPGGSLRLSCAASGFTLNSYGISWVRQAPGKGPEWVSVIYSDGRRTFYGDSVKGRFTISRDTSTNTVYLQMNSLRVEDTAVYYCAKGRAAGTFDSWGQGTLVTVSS
VL: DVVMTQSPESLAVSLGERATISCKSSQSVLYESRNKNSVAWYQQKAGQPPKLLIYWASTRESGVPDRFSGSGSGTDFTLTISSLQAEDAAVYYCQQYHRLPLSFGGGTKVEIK

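The starting antibody came from a phage panning campaign against this peptide. The variants were designed computationally from a first round of random CDR variants and then made and measured. Their group label is 14H_GP_HC (GP: Gaussian process model; HC: hill climbing; a sequence that several methods proposed may carry one label only). In AlphaSeq, yeast of one mating type display the scFv and yeast of the other type display the target. Pairs that bind mate more often; barcode pairs of the diploids are counted by sequencing. Read counts were normalised to the haploid input and turned into Kd by a linear fit to BCL2-family pairs of known affinity, for each replicate. Each pool was mated in six replicate cultures.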

Variants are written as CDR1, CDR2 and CDR3 of the heavy chain (limits as in the source). Parent: GFTLNSYGIS, VIYSDGRRTFYGDSVK, GRAAGTFDS. Scale: log10 of Kd in nM, estimated from mating counts; low values are strong binders. "ND" marks a missing value. The strain was present, yet no cells mated with the target were sequenced in that replicate, which points to weak or no binding.

CDR-H1,CDR-H2,CDR-H3,"log10 Kd, replicates",signal with controls
GFTLNSYGIS,VIYSDGRRTFYTDSVK,GQLAGTFDD,ND 1.44 2.16 1.05 1.92 0.84,0/18
GFTLNEYGIS,VIYSDGRRTFYTDSVK,GRAAGTFTL,0.26 -0.78 0.21 -0.29 -0.71 0.35,0/18
GFQLNSYGIS,VIYSDGRRTFYVDSVK,GRAAGTFDS,ND ND ND ND ND ND,0/18
GFSLNGYGIS,VIYSDGRRTFYSDSVK,GTAAGTFDS,0.87 0.41 0.26 0.59 1.47 1.27,0/18
GFTLNSYGIS,VIYADGRRTFYGDQVK,GRAAGTFKL,ND ND ND ND ND ND,0/18
GFTLNEYGIS,VIYSDGRRTMYGDSVK,GRLAGTFDS,0.49 0.60 0.39 0.40 0.34 0.33,1/18 (2.07)
GFTLDSYGIS,VIYSDGRRTFYQDSVK,GRAAGTFDR,ND ND ND ND 0.76 1.13,0/18
GFTLMSYGIS,VIYADGRRTFYGDSVK,GQAAGTFTS,1.45 2.30 2.10 1.33 1.33 2.04,0/18
GFTLNDYGIS,VIYSDGRRTQYIDSVK,GRAAGTFDA,ND ND 2.02 2.30 ND 1.66,0/18
GFTLNEYGIS,VIYSDGRRTFYADSVK,GRAAVTFDN,ND ND ND ND ND ND,0/18
IFTLNEYGIS,VIYSDGRRTFYGDSVK,GRAAVTFDQ,ND ND ND ND ND ND,0/18
GFTLNSYGIS,VIYSDGKRTFYSDSVK,GHAAGTFDS,ND 1.01 0.93 0.29 0.92 0.27,0/18
GFGLNDYGIS,VIYSDGRRTFYIDRVK,GRAAGTFDS,ND ND 1.61 ND ND 2.06,0/18
YFTLNEYGIS,VIYSDGRRTFYSDSVK,GRAAGTFTS,ND ND ND ND ND ND,0/18
GFTLNEYGIS,VIYSDGRRTFYADSVK,GRAAVTFDQ,ND ND ND ND ND ND,0/18
GFELNSYGIS,VIYSDGRRTFYLDSVK,GQLAGTFDS,ND ND 1.52 ND 1.97 ND,0/18
GYTLNEYGIS,VIYSDGRRTFYSDSVK,GRYAGTFDS,1.64 1.59 1.28 0.90 0.77 1.31,0/18
GFTLNSYGIS,VIYSDGRRTFYDDSVK,GVNAGTFDS,-0.70 -0.48 0.05 -0.40 1.70 ND,0/18
GFTLNSYGIS,VIYSDGRRTFYSDSVK,GKAGGTFDR,ND ND ND ND 3.26 ND,2/18 (3.22)
GFTLNSYGIS,VIYSDGERTFYCDSVK,GEAAGTFDS,ND ND ND ND ND ND,1/18 (2.73)
GFTLNSYGIS,VIYADGRRSFYGDSVK,GEAAGTFKS,-0.29 ND 1.02 1.84 0.36 0.78,0/18
GFTLNEYGIS,VIYSDGRRTFYGDAVK,GRAAVTFDM,ND ND ND ND ND ND,0/18
GFTLDSYGIS,VIYSDGRRTFYGDSVK,GKAAGTFDR,2.71 1.70 1.92 1.39 1.56 2.20,1/18 (1.37)
GFGLNSYGIS,VIYSDGRRTFYDDSVK,GLLAGTFDS,1.33 1.14 0.92 0.57 0.94 2.49,0/18
GFPLNSYGIS,VIYSDGRRTFYDDSVK,GQAAGTFDS,0.66 0.95 ND 1.04 1.21 1.67,0/18
GFWLNDYGIS,VIYADGRRTFYGDSVK,GEAAGTFDS,0.31 0.08 0.50 -0.14 -0.21 0.24,2/18 (1.58)
GFTLNDYGIS,VIYSDGRRTFYADAVK,GRAAGTFRS,ND ND ND ND ND ND,0/18
GFTLNEYGIS,VIYSDGRRTFYHDSVK,GRYAGTFDS,1.73 0.64 0.39 0.03 0.26 1.15,0/18
GFTLESYGIS,VIYSDGRRTFYDDSVK,GQIAGTFDS,0.53 0.97 0.85 0.13 0.50 0.67,0/18
GFSLNEYGIS,VIYSDGRRTFYCDSVK,GKAAGTFDR,1.83 1.21 1.12 0.78 0.99 1.12,0/18
GFELNDYGIS,VIYSDGRRTFYIDSVK,GRLAGTFDS,ND 0.81 ND 1.75 1.81 ND,0/18
GFTLNDYGIS,VIYSDGRRTFYSDSVK,GRAAGTFDI,0.47 0.38 0.29 1.32 0.72 0.72,1/18 (1.98)
GFQLNDYGIS,VIYSDGRRTFYIDKVK,GKAAGTFDS,ND ND ND ND ND ND,0/18
GFTLNEYGIS,VIYSDGRRTWYGDSVK,GRAAGTFIS,ND ND ND ND ND ND,1/18 (2.69)
GFDLNEYGIS,VIYSDGRRTFYGDAVK,GRAAGTFDV,1.10 0.57 0.45 0.61 0.29 0.50,0/18
GFTLNEYGIS,VIYSDGRRTFYTDKVK,GRFAGTFDS,ND ND ND ND ND ND,0/18
GFTLNRYGIS,VIYSDGRRTFYSDSVK,GRLAGTFDT,0.04 0.13 -0.19 0.03 -0.03 0.44,0/18
GFTLNEYGIS,VIYSDGRRTFYGDSVK,GRAAGTFGQ,1.61 0.43 0.69 0.49 0.65 0.68,0/18

Top 5 of the variants detected in all replicates, tightest first:

| CDR-H1 | CDR-H2 | CDR-H3 | log10 Kd, replicates | signal with controls |
|---|---|---|---|---|
| GFTLNEYGIS | VIYSDGRRTFYTDSVK | GRAAGTFTL | 0.26 -0.78 0.21 -0.29 -0.71 0.35 | 0/18 |
| GFTLNRYGIS | VIYSDGRRTFYSDSVK | GRLAGTFDT | 0.04 0.13 -0.19 0.03 -0.03 0.44 | 0/18 |
| GFWLNDYGIS | VIYADGRRTFYGDSVK | GEAAGTFDS | 0.31 0.08 0.50 -0.14 -0.21 0.24 | 2/18 (1.58) |
| GFTLNEYGIS | VIYSDGRRTMYGDSVK | GRLAGTFDS | 0.49 0.60 0.39 0.40 0.34 0.33 | 1/18 (2.07) |
| GFDLNEYGIS | VIYSDGRRTFYGDAVK | GRAAGTFDV | 1.10 0.57 0.45 0.61 0.29 0.50 | 0/18 |

Three control strains display no target. For all heavy chain designs, 1% of the pairings with them gave a signal, with a median of 2.08 and one signal in twenty below 0.84, so weak values seen in few replicates may be background. Also given: how often the same scFv was detected with the empty control strains, with their mean in brackets. A sequence measured in both rounds can read differently, since the two assays cover different ranges. The parent sequence was in this pool as ten entries: three were never detected, three once, and four in most replicates, with averages from 0.34 to 2.37. The authors' rule: three or more of the six replicates give a measured affinity, fewer mean a poor binder.